Measured values from PMC7069796 (Breast cancer research and treatment, 2020).

Sequences of proteins named here, by UniProt entry; tags and fusion partners are left off. Residues count along the entry.
UniProt P03372, 282-595 Y537S: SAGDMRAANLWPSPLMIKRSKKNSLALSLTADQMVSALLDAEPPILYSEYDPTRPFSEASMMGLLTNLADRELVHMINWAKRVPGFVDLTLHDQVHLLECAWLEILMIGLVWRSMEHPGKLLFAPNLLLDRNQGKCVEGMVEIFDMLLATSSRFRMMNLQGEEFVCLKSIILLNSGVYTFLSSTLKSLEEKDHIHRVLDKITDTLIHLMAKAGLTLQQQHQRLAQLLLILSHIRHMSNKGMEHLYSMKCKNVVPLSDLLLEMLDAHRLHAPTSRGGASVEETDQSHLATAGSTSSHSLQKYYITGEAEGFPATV

Molecular target: Estrogen Receptor Alpha (ERα) (Homo sapiens, UniProt P03372, Y537S)
Test: LanthaScreen TR-FRET competitive binding assay with purified GST-ERα LBD

pIC50: 7.83
SMILES: C[C@@H]1Cc2c([nH]c3ccccc23)[C@@H](c2c(F)cc(/C=C/C(=O)O)cc2F)N1CC(C)(C)F [AZD9496, (E)-3-(3,5-Difluoro-4-((1R,3R)-2-(2-fluoro-2-methylpropyl)-3-methyl-2,3,4,9-tetra hydro-1H-pyrido[3,4-b]indol-1-yl)phenyl)acrylic Acid]

pIC50: −log10 of the molar value.
